## Binding of CDR-mutated scFvs to a peptide of the spike HR2 region

The target is the same throughout: PDVDLGDISGINAS, from the HR2 region of SARS-CoV-2 spike.

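The starting antibody came from a phage panning campaign against this peptide. Library AAYL51 holds single substitutions and randomly drawn double and triple substitutions in the CDRs. The assay is AlphaSeq: two haploid yeast populations carry antibody and antigen on their surface. After mating in shaken culture at 30 °C for 16 h, diploids were selected and their barcode pairs sequenced. Scores were corrected for input abundance and mapped to Kd with protein pairs of known affinity run in the same pool. Mating was done three times.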

Each scFv is VL, the linker GGGGSGGGGSGGGGS, VH, as in the parent Ab-91, and differs from it in the CDRs of the heavy chain only.
VL: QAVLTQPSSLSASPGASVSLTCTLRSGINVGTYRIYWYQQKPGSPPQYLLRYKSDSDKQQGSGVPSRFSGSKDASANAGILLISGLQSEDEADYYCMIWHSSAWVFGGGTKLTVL
VH: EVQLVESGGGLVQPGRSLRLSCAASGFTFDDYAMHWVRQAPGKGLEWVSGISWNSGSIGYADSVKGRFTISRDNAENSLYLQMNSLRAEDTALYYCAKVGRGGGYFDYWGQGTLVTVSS

Positions count from residue 1 of the parent VH; I58A puts A in place of I.
Values are log10 of the apparent Kd in nM; lower means stronger binding.
Averages over replicates are reported, and they cover detected replicates only.
"not detected" means that the variant was in the library but no mating with the target was seen in any replicate; the authors take this as a sign of poor binding, and no number exists.
As a blank, each scFv also met three strains without target: over library AAYL51, 21% of these pairings were detected, typically at 4.54 and seldom below 3.26.

changes,"mean, log10 nM",detected
I58A K65T R101D,2.32,3/3
Y32A N54E G102A,not detected,0/3
D30E N54V Y108F,3.30,2/3
Y32E S57W G104L,5.09,3/3
F27I A61E G102P,not detected,0/3
A33G K65V G102R,3.09,3/3
H35A G50S A61S,4.23,2/3
G26I G50I I51W,4.40,3/3
F27H T28Q H35V,4.86,1/3
S57K G59R G102Y,5.36,3/3
Y32S A61I Y108T,not detected,0/3
G26N M34F F106S,not detected,0/3
W53T G100W G104T,not detected,0/3
M34W A61P S63K,not detected,0/3
G59E G100A F106H,not detected,0/3
H35K A61C S63K,not detected,0/3
D31I A61C,not detected,0/3
H35P G56E G59V,5.39,2/3
S52K G100Y F106D,not detected,0/3
M34R I51L V64N,not detected,0/3
A33L S57V Y105I,not detected,0/3
A33G H35F I51F,4.38,1/3
I51W Y105M D107L,4.82,2/3
G59I G102L,not detected,0/3
G50S S52L G104H,not detected,0/3
N54M R101L,3.64,1/3
S55R Y60D,3.83,1/3
Y105L D107G,not detected,0/3
F27I G59D G103W,5.84,2/3
G56M S57D I58R,0.32,3/3
F29Y D30E G50I,3.54,1/3
N54R V64W G103Y,5.34,1/3
T28W G102Y Y105E,3.36,2/3
F106A D107L,1.91,3/3
N54A D62Y S63F,4.95,2/3
A33K N54T,4.28,2/3
T28F F29C S55I,not detected,0/3
M34R W53H D107F,5.00,1/3
I58K K65C R101C,1.99,3/3
D62Y G103I G104H,not detected,0/3
Y32H M34P F106I,3.58,1/3
G26T G50C G59S,4.43,2/3
I58C Y60R S63K,3.99,1/3
S52M I58Y V64G,4.94,2/3
I51D S57C Y105S,4.11,2/3
I51R G100I D107W,4.48,2/3
G59A K65M G104Q,3.34,1/3
F27H F29Q D30T,4.19,1/3

A selection of 5 entries from above:

changes,"mean, log10 nM",detected
G26N M34F F106S,not detected,0/3
Y32A N54E G102A,not detected,0/3
I58C Y60R S63K,3.99,1/3
A33G H35F I51F,4.38,1/3
N54A D62Y S63F,4.95,2/3

For reference, the parent read 1.86 as the reference entry and 0.88 as a member of this library.

Values reported by Engelhart et al. 2022, doi:10.1038/s41597-022-01779-4 (FLAb copy).